Read-outs that look alike come from different tables or passages of the source.
Assays:
POS-1 mouse osteosarcoma [1] = test: cell proliferation test, 72hrs in 96-well plates, tumoral line; assay type: cell-based
murine fibroblast L929 = test: cell proliferation test, 72hrs in 96-well plates, non-tumoral line; assay type: cell-based; settings: read-out: IC50 L929 (ethanol), ethanol as solvent (final 1% in the well)
POS-1 mouse osteosarcoma [2] = test: in vivo survival in lung nodule model after intravenous POS-1 cells; settings: C3H/HeN mice, injection of 112 nmol/kg 7 days after tumoral cells; as soon as the 40th day, versus untreated control; FIG. 1

NP(=O)(OCc1ccccc1)N(CCCl)CCCl (stereo not shown)
IC50 (POS-1 mouse osteosarcoma [1]; read-out: IC50 POS-1 (DMSO), DMSO as solvent (final 1% in the well)): > 500 µM | IC50 (POS-1 mouse osteosarcoma [1]; read-out: IC50 POS-1 (ethanol), ethanol as solvent (final 1% in the well)): > 500 µM | IC50 (murine fibroblast L929): > 500 µM | survival rate (POS-1 mouse osteosarcoma [2]): significant increase

— patent US8361993B2, “Hydroxy-bisphosphonic acid derivatives as vector targeting bone tissue” (Universite de Nantes, priority 2008, dated 2013)
